Earlier results as cited in patent publication US20090185973A1, “METHODS, COMPOSITIONS, UNIT DOSAGE FORMS, AND KITS FOR PHARMACOLOGIC STRESS TESTING WITH REDUCED SIDE EFFECTS” (ADENOBIO N.V., priority 2008, published 2009).

Molecular target: A2a receptor (Homo sapiens, UniProt P29274)
Settings: in vivo; cited from earlier work

Which “Side effects as compared to Adenoscan (adenosine)” value does the source give for `CNC(=O)c1cnn(-c2nc(N)c3ncn([C@@H]4O[C@H](CO)[C@@H](O)[C@H]4O)c3n2)c1` [Regadenoson, regadenoson] here?
The value was “increase in dyspnea, headache and gastrointestinal disorders”.
